Reference: article PMC9059125 (Journal of Medicinal Chemistry, 2022)

Assay: USP-simulated intestinal fluid (SIF) peptide stability assay
Conditions: USP-SIF pH 6.8, pancreatin 1× USP (10 mg/mL), 37 °C, 50 μM peptide

Q: For `CC[C@H](C)[C@@H]1NC(=O)[C@@H]2CCCN2C(=O)[C@@H]2CCCN2C(=O)[C@H]([C@@H](C)CC)NC(=O)[C@H](CO)NC(=O)[C@H](CCCCN)NC(=O)[C@H]([C@@H](C)O)NC(=O)[C@@H]2CSSC[C@H](NC1=O)C(=O)N[C@H](Cc1ccc(OC)cc1)C(=O)N[C@@H](Cc1ccccc1)C(=O)N[C@@H](CCC(N)=O)C(=O)N[C@@H](CC(N)=O)C(=O)N[C@@H](CCCNC(=N)N)C(=O)N1CCC[C@H]1C(=O)N[C@@H](CCCNC(=N)N)C(=O)N2`, which “t1/2 SIF” value is on record?
A: 3 ± 1 min
